Where two headings read alike, the source gives them in different places.
Target: PDE10A (UniProt Q9Y233)

## COc1ccc(Cc2nccc3cc(OC)c(OC)cc23)cc1OC [Papaverine]
read-out: IC50 value (PDE10A, text), competitive inhibitor
  IC50: 17 nM
Substrate at 1/3 Km
  IC50: 18 nM
